# The list shows a part of the results, in another mix than the full data. Results filed as inconclusive are left out. Calls of active or inactive are those of the source. Calls come from the whole dose curve; as a rule, active = well fitted inhibition curve with a large enough effect in the polarisation, with a control signal flat (not every such curve was filed as active); inconclusive = small, poorly fitted or top-dose-only effect, or effect the other way, or a change in a side signal; inactive = no such curve, though single readings can be large or run the other way; the % refers to the polarisation.
# Amino acid sequences for entries named in this document (tags omitted).
# UniProt Q13526, whole entry, looked up: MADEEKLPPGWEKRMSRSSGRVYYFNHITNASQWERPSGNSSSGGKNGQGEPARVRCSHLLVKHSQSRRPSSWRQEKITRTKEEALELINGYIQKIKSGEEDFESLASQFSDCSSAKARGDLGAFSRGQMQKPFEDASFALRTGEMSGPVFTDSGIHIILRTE
# Biological target: Peptidyl-prolyl cis-trans isomerase NIMA-interacting 1 (Homo sapiens) (UniProt Q13526)
# Assay: qHTS Assay to Find Inhibitors of Pin1
# Conditions: Pin1 FP peptide displacement, HiFluor488, 10 min; at 115 µM (top of the series)
# % is set by controls: 0 for no effect and ±100 for the full control effect.
row,Compound,"activity, negative = inhibition"
1,CCC(C)N(CC(C)C)C(=S)SC(NC(C)=O)C(Cl)(Cl)Cl (stereo not given),inactive: 2.52%
2,CCOP(=O)(Nc1cccc2cccnc12)OCC,inactive: -4.41%
3,O=C(OC1CN2CCC1CC2)c1cccc([N+](=O)[O-])c1 (stereo not given),inactive: -6.9%
4,CCOC(=O)c1ccc(NC(=O)C(C)(CCl)SC)cc1 (stereo not given),inactive: -5.17%
5,O=C(COc1ccccc1)OC1CN2CCC1CC2 (stereo not given),inactive: -1.78%
6,O=C(Nc1ccncc1[N+](=O)[O-])c1ccc([N+](=O)[O-])cc1[N+](=O)[O-],inactive: -3.31%
7,COP1(=S)c2c(C)nn(CCC#N)c2N=C(c2ccc(F)cc2)N1C (stereo not given),inactive: -0.471%
8,Cc1cc(SC(NC=O)C(Cl)(Cl)Cl)ncn1 (stereo not given),inactive: -1.66%
9,O=P(Nc1ccccn1)(c1cccc2ccccc12)c1cccc2ccccc12,inactive: -5.05%
10,O=[N+]([O-])c1ccc(Nc2ccc(Oc3ccc([N+](=O)[O-])cc3[N+](=O)[O-])cc2)c([N+](=O)[O-])c1,inactive: -3.16%
11,CCOC(=O)Nc1cccc([As](=O)(O)O)c1,inactive: 4.41%
12,CCCCOc1ccc(C(=O)NCC2(N3CCCCC3)CCCCC2)cc1OC,inactive: 6.41%
13,Cc1cc(SC(NC(=O)c2ccccc2)C(Cl)(Cl)Cl)nc(C(C)C)n1 (stereo not given),inactive: -1.92%
14,CCOC(=O)Nc1ccc([As](=O)(O)O)c(O)c1,inactive: -15.2%
15,CC1CCNP(=O)(N(CCCl)CCCl)O1 (stereo not given),inactive: 1.57%
16,CC(C)NC(=O)NP(=O)(Oc1ccccc1)Oc1ccccc1,inactive: 3.7%
17,CCN(CC)C(=S)SC(NC=O)C(Cl)(Cl)Cl (stereo not given),inactive: -6.15%
18,O=C(OC1CN2CCC1CC2)c1cccc2[nH]cnc12 (stereo not given),inactive: 1.52%
19,O=[N+]([O-])c1cc([N+](=O)[O-])c(-c2ccn[nH]2)s1,inactive: -14.4%
20,ClCCSc1nnc(-c2cccnc2)o1,inactive: -5.14%
21,COC(=O)C1(C)COP(=O)(N2CCCCCC2)OC1 (stereo not given),inactive: -2.19%
22,CC(C)c1ccc(OP(=O)(Nc2ccccn2)Oc2ccccc2F)cc1 (stereo not given),inactive: 0.376%
23,Cc1ccc(OP(=O)(Nc2ccc([N+](=O)[O-])cn2)Oc2ccc(C)cc2)cc1,inactive: 0.749%
24,Cc1ccc2nc3c(c(C)c2c1)CC(C(Cl)Cl)S3 (stereo not given),inactive: 3.05%
25,O=[As](O)(c1ccc(O)cc1)c1ccccc1O,inactive: -0.905%

row,Compound,"activity, negative = inhibition"
1,C[As](=O)(O)c1cccc(C(=O)O)c1,inactive: 1.1%
2,COc1cc(C(=O)NCC2(N3CCOCC3)CCCCC2)ccc1OCC(C)C,inactive: 3.16%
3,O=[N+]([O-])c1cc(Oc2ccc([N+](=O)[O-])cc2C(F)(F)F)cc([N+](=O)[O-])c1,inactive: -3.51%
4,COc1ccc(N/C(=N/P(=O)(N2CCOCC2)N2CCOCC2)N2CCOCC2)cc1,inactive: -7.72%
5,O=P1(N(CCCl)CCCl)OCCCN1CCCl (stereo not given),inactive: 4.27%
6,O=P1(N(CCCl)CCCl)Nc2ccccc2N1,inactive: -9.89%
7,COc1ccc2nc(NP(=O)(c3ccccc3)c3ccccc3)sc2c1,inactive: 0.159%
8,COc1cc(I)ccc1[As](=O)(O)O,inactive: -1.52%
9,Cc1c2c(nc3ccccc13)SC(C(Cl)Cl)C2 (stereo not given),inactive: 0.833%
10,O=C(OC1CN2CCC1CC2)C12CC3CC(CC(C3)C1)C2 (stereo not given),inactive: -0.744%
11,Cc1cc(=O)[nH]c(N[N+](=O)[O-])n1,inactive: -1.68%
12,COc1cc(C2NCCC3(OCCO3)C2(C)C)cc(OC)c1OC (stereo not given),inactive: -7.11%
13,CCOP(=O)(Nc1cccc2ccccc12)OCC,inactive: -4.67%
14,Cc1ccc(NCCc2c([N+](=O)[O-])cc([N+](=O)[O-])cc2[N+](=O)[O-])cc1,inactive: -6.6%
15,Nc1cccc2c([As](=O)(O)O)cccc12,inactive: -0.436%
16,CCCOP(=S)(Nc1nc(N)cc(=O)[nH]1)OCCC,inactive: 2.82%
17,Cc1cccc(OCC(=O)OC2CN3CCC2CC3)c1 (stereo not given),inactive: 1.75%
18,O=[As](O)(c1cccc(O)c1)c1cccc(O)c1,inactive: -6.9%
19,O=C(OC1CN2CCC1CC2)c1ccc(Cl)cc1 (stereo not given),inactive: -12.1%
20,O=[As](O)(O)c1cccnc1,inactive: -11%
21,COc1cc(C(=O)NCC2(N3CCOCC3)CCCCC2)cc(Cl)c1OC(C)C,inactive: 5.84%
22,CS(=O)(=O)c1ccc(Cl)c(NC(=O)COC(=O)C(O)(c2ccccc2)c2ccccc2)c1,inactive: -0.163%
23,N#CCCN(C(=O)COC(=O)C(O)(c1ccccc1)c1ccccc1)c1ccc(F)cc1,inactive: -3.75%
24,CN(C(=O)Cc1ccccc1)[C@@H]1CC[C@]2(CCCO2)C[C@H]1N1CCCC1,inactive: -2%
25,CCOP1(=S)c2c(C)nn(CCC#N)c2N=C(c2ccc(F)cc2)N1C (stereo not given),inactive: 2.95%

row,Compound,"activity, negative = inhibition"
1,O=[N+]([O-])c1ccc2c(c1)nnn2O,inactive: -1.94%
2,CN(C)C(=O)c1cc([N+](=O)[O-])cc2c1-c1c(cc([N+](=O)[O-])cc1[N+](=O)[O-])C2=O,inactive: 9.64%
3,CN(C(=O)Cc1ccc(Cl)c(Cl)c1)[C@H]1CC[C@@]2(CCCO2)C[C@@H]1N1CCCC1,inactive: -0.0792%
4,NC(=O)Nc1ccc([As](=O)(O)O)cc1,inactive: -0.96%
5,O=C(O)COc1ccc([As](=O)(O)O)cc1[N+](=O)[O-],inactive: -11.8%
6,Nc1ccccc1[As](=O)(O)c1ccccc1,inactive: -0.826%
7,CCOP1(=S)c2c(C)nn(CCC#N)c2N=C(c2ccccc2F)N1C (stereo not given),inactive: -1.89%
8,O=P(Nc1nccs1)(Oc1ccccc1)Oc1ccccc1,inactive: 0.492%
9,O=P(Nc1nccs1)(c1ccccc1)c1nc2ccccc2s1 (stereo not given),inactive: -1.9%
10,Nc1cccc([As](=O)(O)c2ccccc2)c1,inactive: -3%
11,Cc1ccc(OCC(=O)OC2CN3CCC2CC3)cc1 (stereo not given),inactive: 0.566%
12,O=[As](O)(c1cccs1)c1cccs1,inactive: -6.61%
13,NS(=O)(=O)c1cccc(NC(=O)COC(=O)C(O)(c2ccccc2)c2ccccc2)c1,inactive: -1.09%
14,O=P1(Nc2ncccn2)COc2ccccc2OC1,inactive: -0.868%
15,CN(C)C1(CNC(=O)c2ccc(S(C)(=O)=O)cc2)CCCCC1,inactive: 1.93%
16,O=C(/C=C/c1ccccc1)OC1CN2CCC1CC2 (stereo not given),inactive: 0.536%
17,CCCC1OP(=O)(Nc2ccccc2)OCC1CC (stereo not given),inactive: -4.52%
18,Cc1nn(-c2ccccc2)c2c1P(=O)(N1CCOCC1)N(C)C(c1ccccc1)=N2 (stereo not given),inactive: 3.01%
19,Cc1ccc(C(=O)OC2CN3CCC2CC3)cc1 (stereo not given),inactive: 0.96%
20,CC1CCC(C(C)C)C(OP(=O)(Nc2ccccn2)c2ccccc2)C1 (stereo not given),inactive: -2.64%
21,CN(C(=O)Cc1ccc(Cl)c(Cl)c1)[C@@H]1CCCC[C@H]1N1CCCC1,inactive: 2.1%
22,CC(C)/C=N\N=C(\N)N[N+](=O)[O-],inactive: 0.842%
23,CC1(CBr)Cn2c(nc3ccccc3c2=O)S1 (stereo not given),inactive: -0.346%
24,COc1ccccc1CNC(=O)COC(=O)C(O)(c1ccccc1)c1ccccc1,inactive: -7.52%
25,Clc1n[nH]nc1-c1nn[nH][15n]1,inactive: -14.9%

row,Compound,"activity, negative = inhibition"
1,CC(C)(C)C(=O)NC(Sc1ncccn1)C(Cl)(Cl)Cl (stereo not given),inactive: -1.01%
2,CCC1=CC2Cc3nc4ccc(Cl)cc4c(N)c3C(C1)C2 (stereo not given),inactive: 0.862%
3,O=P1(Nc2ccccn2)COc2ccccc2OC1,inactive: 6.09%
4,CCOP(=O)(NC(=NC(C)c1ccccc1)NC(C)c1ccccc1)OCC (stereo not given),inactive: 5.68%
5,CCOP(=O)(Nc1ccc(C)cn1)OCC,inactive: -1.67%
6,c1nnnn1CCn1cnnn1,inactive: -10.7%
7,O=P(Nc1nccs1)(c1ccccc1)c1ccccc1,inactive: -0.721%
8,CC(C)C(=O)NC(Sc1ccccc1)C(Cl)(Cl)Cl (stereo not given),inactive: -7.69%
9,O=C(OC1CN2CCC1CC2)c1cccc(Cl)c1 (stereo not given),inactive: 1.23%
10,C(Cc1nn[nH]n1)Cc1nn[nH]n1,inactive: -1.8%
11,Nc1ccc([As](=O)(O)c2ccc([N+](=O)[O-])cc2)cc1,inactive: -5.38%
12,O=[As](O)(c1ccccc1)c1ccc(O)cc1,inactive: 2.33%
13,CC(=O)NC(SC(=S)N(C)C)C(Cl)(Cl)Cl (stereo not given),inactive: -0.697%
14,O=[N+]([O-])c1ncn(CCn2cnc([N+](=O)[O-])n2)n1,inactive: -6.22%
15,O=[N+]([O-])c1ccc(O)c(/C=N/Nc2ccc([N+](=O)[O-])cc2[N+](=O)[O-])c1,inactive: -8.49%
16,O=P(Nc1nc2ccccc2s1)(c1ccccc1)c1ccccc1,inactive: 0.567%
17,C[C@H]1OP(=O)(Oc2ccccc2)[C@H](O)[C@H](O)[C@H]1N=[N+]=[N-] (stereo not given in full),inactive: -0.618%
18,CN(C)C1(CNC(=O)c2ccc(Cl)c(S(N)(=O)=O)c2)CCCCC1,inactive: 8.57%
19,O=P(Nc1ccccn1)(c1ccc(Br)cc1)c1ccc(Br)cc1,inactive: 0.565%
20,COc1ccc(N)c([N+](=O)[O-])c1[N+](=O)[O-],inactive: -4.14%
21,CC(NC(=O)COC(=O)C(O)(c1ccccc1)c1ccccc1)c1ccccc1 (stereo not given),inactive: 1.59%
22,Cc1ccccc1OP(=O)(Nc1ccccn1)Oc1ccccc1C,inactive: -9.63%
23,O=c1c2cc([N+](=O)[O-])ccc2[nH]c2c([N+](=O)[O-])cc([N+](=O)[O-])cc12,inactive: 43.9%
24,CN(C)C(=O)Oc1noc2ccccc12,inactive: -14.4%
25,O=C(OC1CN2CCC1CC2)c1ccccc1 (stereo not given),inactive: 3.01%

# — PubChem BioAssay AID504891 (National Center for Advancing Translational Sciences (NCATS), 2011)
